# Data taken from patent US7745604B2, “Upstream control elements of the proopiomelanocortin gene and their use” (Oregon Health & Science University, priority 2001, dated 2010).
# Tests used:
# POMC neurons = test: Whole cell recordings of membrane potential of EGFP-labeled POMC neurons in ARC slices; type: cell-based, mouse; settings: PYY3-36 (10 nM per FIG. 6a), n=22, P<0.0003
# [1] = system: c-fos expression in the arcuate nucleus; test: c-fos expression in the lateral arcuate after IP injection, rat; type: in vivo; settings: single IP injection, n=3, P<0.0001
# [2] = system: c-fos expression in the arcuate nucleus; test: c-fos expression in arcuate nucleus of Pomc-EGFP mice after IP injection; type: in vivo, mouse; settings: IP 5 μg/100 g, 2 hours, n=5, P<0.006
# Description: Data were obtained from 5 mice in each group. For the Pomc-EGFP mice 5 anatomically matched arcuate nucleus sections (Franklin et al., The Mouse Brain in Stereotaxic Coordinates (Academic Press, San Diego, 1997) were counted from each animal, and images acquired using a Leica TSC confocal microscope (Grove et al., Neuroscience 100:731-40, 2000).
substance,measurement,setting,value
PYY3-36,depolarization of POMC neurons,POMC neurons,10.3±2.1 mV
same,number of cells positive for c-fos,[1],168±2
same,proportion of POMC neurons that express c-fos,[2],20.4±2.9%
